From patent publication US10787419B2, “Cannabinoid receptor mediating iminopyrazole compounds” (The United States of America, as represented by the …, priority 2012, dated 2020)
pIC50, pKi: −log10 of the molar value. Like-named read-outs stand apart in the source and are kept apart here.

Experiments:
CB1 [1] = biological target: T1, CB1 (Mus musculus (Mouse), UniProt P47746); assay: radioligand displacement assay in mouse brain membranes (Ki CB1); type: binding
[2] = tissue levels in brain and plasma after administration to mice; details: 1 hour after administration of 10 mg/kg to mice
DIO mice = assay: mice with diet-induced obesity (DIO) treated orally for 14 days; type: in vivo; details: 10 mg/kg/day oral
CB1 [3] = biological target: T1, CB1

| SMILES | pKi (CB1 [1]; Table 1, read-out: Ki CB1) | pKi (CB1 [1]; Table 2, read-out: Ki CB1) | brain tissue level relative to plasma level [2] | pKi (CB1 [1]; radioligand displacement, mouse brain membranes, read-out: Ki) | body weight reduction relative to vehicle-treated DIO mice (DIO mice) | Functional GTPγS binding CB1 Emax (CB1 [3]) | pIC50 (CB1 [3]; read-out: Functional GTPγS binding CB1 IC50) |
| --- | --- | --- | --- | --- | --- | --- | --- |
| CC(=N)N/C(=N\S(=O)(=O)c1ccc(Cl)cc1)N1C[C@@H](c2ccccc2)C(c2ccc(Cl)cc2)=N1 [Compound 2E2] | 7.32 | 6.74 | – | – | – | – | – |
| CC(=N)N/C(=N\S(=O)(=O)c1ccc(Cl)cc1)N1C[C@H](c2ccccc2)C(c2ccc(Cl)cc2)=N1 [Compound 2E1] | 8.05 | 8.05 | < 2 % of plasma level | 8.05 | – | – | – |
| CC(=N)N/C(=N\S(=O)(=O)c1ccc(Cl)cc1)N1CC(c2ccccc2)C(c2ccc(Cl)cc2)=N1 (racemic) [Compound 2, 3-(4-chlorophenyl)-N′-((4-chlorophenyl)sulfonyl)-N-(1-iminoethyl)-4-phenyl-4,5-dihydro-1H-pyrazole-1-carboximidamine] | 7.74 | 7.74 | – | – | ~10% | −20 % basal | 7.30 |
